The results in this text go back to ChEMBL document CHEMBL4011649 (J Med Chem, 2017).

The chains behind the UniProt entries cited, without tags or fusion partners. Where a name states a change or a piece, a line headed by the entry shows the natural chain unless it says otherwise.
UniProt P28335: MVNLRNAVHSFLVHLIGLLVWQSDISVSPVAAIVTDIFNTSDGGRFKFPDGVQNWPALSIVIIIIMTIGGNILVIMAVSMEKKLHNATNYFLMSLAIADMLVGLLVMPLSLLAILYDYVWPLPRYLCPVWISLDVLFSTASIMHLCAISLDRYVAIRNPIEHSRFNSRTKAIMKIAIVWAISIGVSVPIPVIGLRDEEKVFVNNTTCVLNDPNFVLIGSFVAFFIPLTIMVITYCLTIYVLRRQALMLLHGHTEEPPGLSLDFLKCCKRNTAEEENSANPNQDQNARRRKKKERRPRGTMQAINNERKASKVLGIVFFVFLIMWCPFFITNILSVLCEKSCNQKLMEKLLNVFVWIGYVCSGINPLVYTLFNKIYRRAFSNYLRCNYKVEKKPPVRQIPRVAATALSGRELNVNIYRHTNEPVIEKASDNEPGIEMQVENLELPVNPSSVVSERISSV
UniProt P41595, whole entry: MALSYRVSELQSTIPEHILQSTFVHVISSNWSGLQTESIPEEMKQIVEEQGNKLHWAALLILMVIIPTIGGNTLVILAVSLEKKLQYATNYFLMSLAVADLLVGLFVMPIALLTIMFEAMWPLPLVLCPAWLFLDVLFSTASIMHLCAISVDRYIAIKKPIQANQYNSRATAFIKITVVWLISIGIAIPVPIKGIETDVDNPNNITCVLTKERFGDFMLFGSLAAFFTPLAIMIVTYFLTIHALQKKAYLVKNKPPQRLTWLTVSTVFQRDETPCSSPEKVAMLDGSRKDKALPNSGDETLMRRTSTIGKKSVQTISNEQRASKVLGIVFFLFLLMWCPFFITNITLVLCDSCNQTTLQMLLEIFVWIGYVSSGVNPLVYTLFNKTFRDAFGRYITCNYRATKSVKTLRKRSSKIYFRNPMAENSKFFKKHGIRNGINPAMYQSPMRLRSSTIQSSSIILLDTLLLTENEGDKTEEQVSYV
UniProt P28223, whole entry: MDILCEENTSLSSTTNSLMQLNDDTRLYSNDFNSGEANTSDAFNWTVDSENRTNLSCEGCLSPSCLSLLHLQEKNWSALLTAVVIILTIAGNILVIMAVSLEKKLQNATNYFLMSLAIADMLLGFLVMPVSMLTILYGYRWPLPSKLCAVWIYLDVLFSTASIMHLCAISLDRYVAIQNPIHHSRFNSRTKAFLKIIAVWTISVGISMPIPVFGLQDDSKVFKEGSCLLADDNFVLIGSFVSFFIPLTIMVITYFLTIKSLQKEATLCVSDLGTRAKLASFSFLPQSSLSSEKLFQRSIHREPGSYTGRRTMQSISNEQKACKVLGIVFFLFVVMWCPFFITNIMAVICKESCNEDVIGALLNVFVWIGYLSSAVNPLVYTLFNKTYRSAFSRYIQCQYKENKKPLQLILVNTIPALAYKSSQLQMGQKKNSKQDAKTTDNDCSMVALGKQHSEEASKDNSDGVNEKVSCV

The target of assay [1] is T1, 5-hydroxytryptamine receptor 2C (Homo sapiens, UniProt P28335). The assay is described as follows: Agonist activity at human 5-HT2C-INI receptor isoform expressed in Flp-IN HEK293 cells assessed as induction of Gq-mediated calcium flux measured every second for 5 mins by Fluo-4 dye based FLIPR assay. In kind it is functional, cell-based. A general note: Calcium assays in cells follow changes in intracellular calcium, usually with a dye or a luminescent sensor.

Assay [2] concerns the target 5-hydroxytryptamine receptor 2B (Homo sapiens, UniProt P41595). The assay is described as follows: Agonist activity at human 5-HT2B receptor expressed in Flp-IN HEK293 cells assessed as induction of calcium flux measured every second for 5 mins by Fluo-4 dye based FLIPR assay. In kind it is cell-based.
For assay [3], the target named is 5-hydroxytryptamine receptor 2A (Homo sapiens, UniProt P28223). The assay is described as follows: Agonist activity at human 5-HT2A receptor expressed in Flp-IN HEK293 cells assessed as induction of calcium flux measured every second for 5 mins by Fluo-4 dye based FLIPR assay. In kind it is cell-based.
Assay [4] deals with T1, 5-hydroxytryptamine receptor 2C. The assay is described as follows: Agonist activity at tTA containing TEV cleavage site-fused 5-HT2C-INI receptor isoform (unknown origin) expressed in TEV-fused beta-arrestin2 expressing HEK cells assessed as induction of beta-arrestin2 recruitment after 20 hrs by Tango assay. Format: cell-based. On the technique in general: Recruitment of arrestin is a read-out of receptor activation apart from second messengers.

For assay [5] the target is unchanged. The assay is described as follows: Ratio of Emax to EC50 for human 5-HT2C-INI receptor isoform expressed in Flp-IN HEK293 cells. In kind it is cell-based.
For assay [6] the target is unchanged. The assay is described as follows: Ratio of Emax to EC50 for tTA containing TEV cleavage site-fused 5-HT2C-INI receptor isoform (unknown origin) expressed in TEV-fused beta-arrestin2 expressing HEK cells assessed as induction of beta-arrestin2 recruitment activity. In kind it is cell-based.

SMILES strings stand for the structures.

On to `COc1ccccc1CNC[C@H]1C[C@@H]1c1cc(F)ccc1OCCF`, for which the EC50 in assay [1] (read-out: EC50) is 2.4 nM; in assay [1] (read-out: pEC50 (converted)), 2.24 to 2.4 nM; in assay [2], 24 nM; in assay [3], 24 nM; in assay [4], 11 nM. Further, the log(ratio) in assay [5] was 8.59; in assay [6], 7.69.
